Results: patent US6953675

Columns and labels:
WN [1] = experiment: competitive binding assay, from ID50 against unmodified hLL2 F(ab')2
WN [2] = experiment: competitive binding assay, printed as ID50; target taken as WN from paragraph 68

Substance: hLL2 F(ab')2, non-conjugated (antibody)
- Immunoreactivity, % of hLL2 (WN [1]): 100%
- IC50 (WN [2]): 0.384 µg/mL
